The target of the assay is SIRT1 (Homo sapiens, UniProt Q96EB6). Put plainly: SIRT1 mass spectrometry (MS) based deacetylation assay. On FOLD ACT. MS: test concentration or dose not given here. In kind it is biochemical. Conditions: for EC50: read-out: ED50 MS ASSAY, SIRT1 activation, mass spectrometry assay.

By UniProt entry, the sequences of proteins in these tests, tags left out.
UniProt Q96EB6, whole entry: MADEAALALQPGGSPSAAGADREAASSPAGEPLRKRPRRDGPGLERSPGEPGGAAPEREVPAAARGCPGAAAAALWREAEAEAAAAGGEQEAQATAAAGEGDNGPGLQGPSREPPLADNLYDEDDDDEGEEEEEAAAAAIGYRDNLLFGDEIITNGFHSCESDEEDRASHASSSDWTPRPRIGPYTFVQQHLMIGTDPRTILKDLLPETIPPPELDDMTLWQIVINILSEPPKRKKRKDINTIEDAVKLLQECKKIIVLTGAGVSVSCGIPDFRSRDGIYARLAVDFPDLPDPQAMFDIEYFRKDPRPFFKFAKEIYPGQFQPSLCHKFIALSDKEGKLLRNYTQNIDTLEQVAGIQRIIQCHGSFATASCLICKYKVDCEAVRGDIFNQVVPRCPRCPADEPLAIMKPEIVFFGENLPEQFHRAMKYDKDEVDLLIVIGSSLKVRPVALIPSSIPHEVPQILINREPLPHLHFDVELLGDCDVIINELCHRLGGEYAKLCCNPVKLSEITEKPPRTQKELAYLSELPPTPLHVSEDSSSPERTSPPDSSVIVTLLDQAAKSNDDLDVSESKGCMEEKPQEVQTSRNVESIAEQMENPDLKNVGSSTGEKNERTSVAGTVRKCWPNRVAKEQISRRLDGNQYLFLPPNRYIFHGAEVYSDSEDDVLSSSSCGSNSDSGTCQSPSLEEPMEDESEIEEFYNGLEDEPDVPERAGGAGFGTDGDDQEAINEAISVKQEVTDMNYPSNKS

Like-named read-outs stand apart in the source and are kept apart here.

Regarding `COc1cc(OC)cc(C(=O)Nc2ccccc2-c2nc3cc(CN4CCOCC4)cnc3s2)c1`, under “SIRT1 fold activation as determined by MS, tested form: TFA salt”, the “FOLD ACT. MS” value is on record as “A (A (Fold activation >250%))”. The EC50 (tested form: TFA salt) was < 5 µM.
Take `CN(C)c1cccc(C(=O)Nc2ccc(-c3nc4ccccc4[nH]3)cc2)c1`: the EC50 was < 5 µM. Further, for the setting “fold activation of SIRT1, mass spectrometry assay”, the “FOLD ACT. MS” value is “B (B (Fold Activation <250%))”.

For the origin of these results see US8044198B2, “Sirtuin modulating compounds” (Sirtris Pharmaceuticals, Inc., priority 2005, dated 2011).
